ChEMBL document CHEMBL1148794, “Structure-activity relationship of a series of inhibitors of monoacylglycerol hydrolysis--comparison with effects upon fatty acid amide hydrolase” (J Med Chem, 2007)

By UniProt entry, the sequences of proteins in these tests, tags left out.
UniProt Q8R431, whole entry: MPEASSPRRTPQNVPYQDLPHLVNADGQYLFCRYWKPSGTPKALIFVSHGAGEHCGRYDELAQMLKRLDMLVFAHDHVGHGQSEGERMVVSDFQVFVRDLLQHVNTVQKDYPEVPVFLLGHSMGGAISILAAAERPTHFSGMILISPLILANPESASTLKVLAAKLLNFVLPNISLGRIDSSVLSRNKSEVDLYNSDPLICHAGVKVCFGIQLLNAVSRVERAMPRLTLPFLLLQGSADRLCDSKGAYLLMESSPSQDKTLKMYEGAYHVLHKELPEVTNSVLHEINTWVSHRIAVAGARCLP

What was measured:
[1] = target: Monoglyceride lipase (Rattus norvegicus) (UniProt Q8R431); experiment: (§1) Inhibition of MGL in rat cerebellum cytosolic fractions assessed as [3H]2-oleoylglycerol hydrolysis; assay type: tissue-based
[2] = target: Monoglyceride lipase (Rattus norvegicus, UniProt Q8R431); experiment: as §1; assay type: tissue-based
[3] = target: Monoglyceride lipase (Rattus norvegicus) (UniProt Q8R431); experiment: Inhibition of MGL in rat cerebellum cytosolic fractions assessed as [3H]2-oleoylglycerol hydrolysis at 100 uM; assay type: tissue-based
[4] = target: Monoglyceride lipase (Rattus norvegicus) (UniProt Q8R431); experiment: Inhibition of MGL in rat cerebellum membrane fractions assessed as [3H]2-oleoylglycerol hydrolysis at 100 uM; assay type: cell membranes

SMILES	pI50 (-log I50, M) [1]	IC50 [2]	inhibition [3]	inhibition [4]
CCCCC/C=C\C/C=C\C/C=C\C/C=C\CCCC(=O)OCC1CO1 (racemic)	5.35	4.5 µM		
CCCCC/C=C\C/C=C\C/C=C\C/C=C\CCCC(=O)OC[C@H]1CO1			68%	43%
CCCCC/C=C\C/C=C\C/C=C\C/C=C\CCCC(=O)OC[C@@H]1CO1			69%	47%
